Measurements taken from paper PMC12193508.

How the values were obtained:
[1] = molecular target: MJsHsp (sHsp of Methanocaldococcus jannaschii with T33M mutation) (Methanocaldococcus jannaschii) (UniProt Q57733); assay: AUC; sedimentation velocity at 40 °C, 0.1 mg/mL, 40,000 rpm, Rayleigh interference optics, c(s20,w) with SEDFIT; oligomers of one protein
[2] = molecular target: MJsHsp (sHsp of Methanocaldococcus jannaschii with T33M mutation) (Methanocaldococcus jannaschii) (UniProt Q57733); assay: AUC; sedimentation velocity at 40 °C, 1.0 mg/mL, 40,000 rpm, Rayleigh interference optics, c(s20,w) with SEDFIT; oligomers of one protein

w, weight fraction of peak a (N 3) [1]: 7.3% | w, weight fraction of peak b (N 7) [1]: 5.7% | w, weight fraction of peak c (N 15) [1]: 4.8% | w, weight fraction of peak d (N 24) [1]: 35.7% | w, weight fraction of peak e (N 39) [1]: 30.7% | w, weight fraction of peak f (N 55) [1]: 10.6% | w, weight fraction of peak g (N 71) [1]: 5.2% | w, weight fraction of peak a (N 5) [2]: 2.1% | w, weight fraction of peak b (N 11) [2]: 1.7% | w, weight fraction of peak c (N 14) [2]: 2% | w, weight fraction of peak d (N 23) [2]: 38.7% | w, weight fraction of peak e (N 33) [2]: 8.8% | w, weight fraction of peak f (N 40) [2]: 27.6% | w, weight fraction of peak g (N 52) [2]: 12.1% | w, weight fraction of peak h (N 65) [2]: 7%
Substance: MJsHsp (sHsp of Methanocaldococcus jannaschii with T33M mutation) (from UniProt Q57733 1-147) (natural protein)
